Here are results for one molecule from US20110124556 (published 2011).

For this experiment, the target named is human insulin receptor (HIR) (human, UniProt P06213). The experiment in a line: competition.

B1: S116 (peptide)
chain: FHENFYGWFVRQVSKK
Regarding B1, the affinity, expressed as Kd, was 14 nM.
